Laboratory results published in PubChem BioAssay AID1671202 (University of Kansas High Throughput Screening Laboratory, 2021).
The list shows a part of the results, in another mix than the full data. Activity calls are given as the source filed them. Cut-off read from the data, not from the text of the source: active = inhibition above about 50%; inactive = the rest.

Protein sequences, listed by entry. Tags and fused reporters are not part of them.
UniProt P42858, whole entry: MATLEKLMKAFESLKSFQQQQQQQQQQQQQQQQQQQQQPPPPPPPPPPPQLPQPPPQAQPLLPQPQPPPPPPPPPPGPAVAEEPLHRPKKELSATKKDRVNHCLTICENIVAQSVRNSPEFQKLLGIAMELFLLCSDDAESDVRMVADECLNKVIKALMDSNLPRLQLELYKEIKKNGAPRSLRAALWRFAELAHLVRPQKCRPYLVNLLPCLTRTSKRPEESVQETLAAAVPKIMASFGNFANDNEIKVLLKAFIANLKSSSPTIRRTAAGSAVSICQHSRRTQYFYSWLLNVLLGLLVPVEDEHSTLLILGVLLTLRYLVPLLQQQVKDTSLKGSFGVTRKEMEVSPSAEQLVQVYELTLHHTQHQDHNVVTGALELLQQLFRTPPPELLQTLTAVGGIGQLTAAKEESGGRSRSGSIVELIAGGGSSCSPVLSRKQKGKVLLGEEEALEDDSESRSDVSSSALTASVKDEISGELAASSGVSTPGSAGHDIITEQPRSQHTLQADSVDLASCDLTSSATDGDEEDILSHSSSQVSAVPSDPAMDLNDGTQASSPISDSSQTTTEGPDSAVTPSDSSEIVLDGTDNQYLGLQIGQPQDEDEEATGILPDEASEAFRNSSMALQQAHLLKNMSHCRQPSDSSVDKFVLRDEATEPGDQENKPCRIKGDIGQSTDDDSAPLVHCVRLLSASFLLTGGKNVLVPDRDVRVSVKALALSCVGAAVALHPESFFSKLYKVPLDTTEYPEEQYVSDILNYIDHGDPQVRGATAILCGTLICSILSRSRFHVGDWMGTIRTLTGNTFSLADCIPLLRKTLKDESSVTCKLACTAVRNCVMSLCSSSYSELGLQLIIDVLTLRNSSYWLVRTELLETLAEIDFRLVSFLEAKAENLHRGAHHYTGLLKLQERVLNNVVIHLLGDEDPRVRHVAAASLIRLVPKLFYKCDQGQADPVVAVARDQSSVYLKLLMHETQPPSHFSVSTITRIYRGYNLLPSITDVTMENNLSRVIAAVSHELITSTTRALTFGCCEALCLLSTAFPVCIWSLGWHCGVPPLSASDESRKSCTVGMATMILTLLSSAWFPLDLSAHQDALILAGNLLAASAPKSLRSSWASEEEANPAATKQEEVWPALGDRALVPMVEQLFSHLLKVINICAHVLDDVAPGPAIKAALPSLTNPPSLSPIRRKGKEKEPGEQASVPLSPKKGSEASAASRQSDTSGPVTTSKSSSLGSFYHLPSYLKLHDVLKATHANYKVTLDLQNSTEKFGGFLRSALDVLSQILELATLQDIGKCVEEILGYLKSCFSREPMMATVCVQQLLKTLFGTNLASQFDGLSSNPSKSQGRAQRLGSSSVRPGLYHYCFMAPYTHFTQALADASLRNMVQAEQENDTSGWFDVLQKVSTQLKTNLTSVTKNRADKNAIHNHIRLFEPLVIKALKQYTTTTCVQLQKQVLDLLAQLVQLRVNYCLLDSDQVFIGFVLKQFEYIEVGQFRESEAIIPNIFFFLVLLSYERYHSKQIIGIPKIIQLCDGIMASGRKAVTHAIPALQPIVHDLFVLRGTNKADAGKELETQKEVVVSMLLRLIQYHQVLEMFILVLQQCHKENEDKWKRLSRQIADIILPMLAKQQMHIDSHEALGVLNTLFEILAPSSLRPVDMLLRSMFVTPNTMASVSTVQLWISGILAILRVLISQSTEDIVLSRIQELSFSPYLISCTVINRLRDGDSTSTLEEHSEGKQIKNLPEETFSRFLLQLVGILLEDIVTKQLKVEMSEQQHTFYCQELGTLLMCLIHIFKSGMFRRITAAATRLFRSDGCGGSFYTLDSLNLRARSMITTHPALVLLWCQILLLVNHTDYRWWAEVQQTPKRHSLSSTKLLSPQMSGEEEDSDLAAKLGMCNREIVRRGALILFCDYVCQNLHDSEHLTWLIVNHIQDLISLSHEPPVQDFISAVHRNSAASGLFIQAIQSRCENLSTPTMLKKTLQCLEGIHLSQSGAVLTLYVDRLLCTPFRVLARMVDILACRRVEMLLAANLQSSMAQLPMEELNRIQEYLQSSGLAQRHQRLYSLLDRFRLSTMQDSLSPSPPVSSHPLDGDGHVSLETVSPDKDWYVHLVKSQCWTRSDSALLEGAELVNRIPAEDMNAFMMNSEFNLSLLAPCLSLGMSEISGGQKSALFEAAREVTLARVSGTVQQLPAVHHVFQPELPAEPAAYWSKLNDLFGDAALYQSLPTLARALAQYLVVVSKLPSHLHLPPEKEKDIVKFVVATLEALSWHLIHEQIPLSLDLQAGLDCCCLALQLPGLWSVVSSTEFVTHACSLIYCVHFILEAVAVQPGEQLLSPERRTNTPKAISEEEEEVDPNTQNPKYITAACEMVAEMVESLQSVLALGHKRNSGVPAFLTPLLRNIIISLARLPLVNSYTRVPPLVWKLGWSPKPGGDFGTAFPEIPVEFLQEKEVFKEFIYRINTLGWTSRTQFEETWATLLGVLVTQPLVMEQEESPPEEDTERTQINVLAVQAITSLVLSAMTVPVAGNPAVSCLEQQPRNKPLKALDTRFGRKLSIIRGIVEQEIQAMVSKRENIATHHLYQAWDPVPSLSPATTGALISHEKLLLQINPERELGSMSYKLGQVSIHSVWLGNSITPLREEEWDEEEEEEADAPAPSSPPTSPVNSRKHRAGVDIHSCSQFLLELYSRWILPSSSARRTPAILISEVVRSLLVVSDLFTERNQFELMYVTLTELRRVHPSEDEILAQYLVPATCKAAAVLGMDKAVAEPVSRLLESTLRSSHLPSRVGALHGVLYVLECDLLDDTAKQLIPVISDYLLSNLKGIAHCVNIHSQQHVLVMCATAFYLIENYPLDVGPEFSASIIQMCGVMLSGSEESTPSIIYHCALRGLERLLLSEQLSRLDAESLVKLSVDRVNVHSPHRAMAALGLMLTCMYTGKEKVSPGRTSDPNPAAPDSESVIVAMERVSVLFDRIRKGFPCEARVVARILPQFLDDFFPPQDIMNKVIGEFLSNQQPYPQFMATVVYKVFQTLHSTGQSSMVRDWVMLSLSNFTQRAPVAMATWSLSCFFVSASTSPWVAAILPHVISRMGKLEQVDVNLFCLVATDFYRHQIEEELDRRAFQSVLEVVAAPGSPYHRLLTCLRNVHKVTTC

Target: Huntingtin (Homo sapiens) (UniProt P42858)
Assay: mutant huntingtin-calmodulin interaction inhibitors – biochemical, AlphaScreen, primary screen (AID 1671202);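 note: 0% = both proteins with DMSO and 100% = one protein alone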
Settings: AlphaScreen His-mHTT/GST-CaM binding, luminescence; at 15 µM; hits give high values

| Compound | inhibition |
| --- | --- |
| CCOC(=O)N1CCC(Nc2ccc(C)cc2)CC1 | inactive: 4.2% |
| CN1CCC(Nc2ccc(F)cc2)CC1 | inactive: -3.9% |
| NC(=O)C1(Nc2ccccc2)CCN(Cc2ccccc2)CC1 | inactive: -3% |
| CCCN1CCC(Nc2cc(OC)cc(OC)c2)CC1 | inactive: 2.2% |
| CCCN1CCC(Nc2ccccc2F)CC1 | inactive: -10.4% |
| CC(=O)N1CCN(C/C=C/c2ccccc2[N+](=O)[O-])CC1 | inactive: 1.1% |
| CCN1CCC(Nc2ccc(F)cc2)CC1 | inactive: -3.3% |
| CCN1CCC(Nc2cccc(F)c2)CC1 | inactive: -4.6% |
| Fc1cccc(NC2CCN(CCc3ccccc3)CC2)c1 | inactive: 7.4% |
| Clc1ccc(NC2CCN(Cc3ccccc3)CC2)cc1 | inactive: 14.9% |
| Fc1ccccc1NC1CCN(Cc2ccccc2)CC1 | inactive: -8.8% |
| CN1CCC(Nc2ccc(Cl)cc2)CC1 | inactive: 2.5% |
| CN1CCC(Nc2ccc(F)c(Cl)c2)CC1 | inactive: 8.3% |
| N#CC1(Nc2ccccc2)CCN(Cc2ccccc2)CC1 | inactive: 2% |
| N#CC(C#N)=Cc1cc2c(cc1[N+](=O)[O-])OCO2 | inactive: 28.5% |
| CCCN1CCC(Nc2ccc(F)cc2)CC1 | inactive: 0.4% |
| COc1ccc(NC2CCN(CCc3ccccc3)CC2)c(OC)c1 | inactive: 17.4% |
| O=S1(=O)CC(Cl)C(SC2CS(=O)(=O)CC2Cl)C1 (centres undefined) | inactive: -3% |
| CCN1CCC(Nc2ccc(Cl)cc2)CC1 | inactive: -1.4% |
